Assay results as given in the NIST ThermoML archive (doi:10.1016/j.jct.2015.07.042).
Numbers after ± are expanded uncertainties.

Test: activity coefficient (dimensionless); of the first substance listed, at infinite dilution; xn = mol fraction of the nth substance listed
Details: 101 kPa, Liquid, Chromatography, x1 = 0

| SMILES | activity coefficient (358.15 K) | activity coefficient (368.15 K) | activity coefficient (378.15 K) | activity coefficient (388.15 K) |
| --- | --- | --- | --- | --- |
| CCCCOCCCC [dibutyl ether] + CCCCn1cc[n+](C)c1.COP(=O)([O-])OC | 26.8 ± 1.8 | 26.2 ± 1.8 | 25.9 ± 1.8 | 25.5 ± 1.7 |
| CCCCOCCCC [dibutyl ether] + CCCCn1cc[n+](C)c1.CS(=O)(=O)[O-] | 83.9 ± 5.8 | 82.1 ± 5.6 | 81.5 ± 5.6 | 80.5 ± 5.5 |
| CCCCOCCCC [dibutyl ether] + CCCCn1cc[n+](C)c1.[Cl-] | 130 ± 8.9 | 125 ± 8.6 | 118 ± 8.1 | 116 ± 8 |
